# Measurements published in patent publication US7285556B2, “Thienopyrimidine-based inhibitors of the src family” (Board of Regents, The University of Texas Systems, priority 2000, dated 2007).
# Protein sequences, listed by entry. Tags and fused reporters are not part of them. Residues count along the entry.
# UniProt P12931, whole entry: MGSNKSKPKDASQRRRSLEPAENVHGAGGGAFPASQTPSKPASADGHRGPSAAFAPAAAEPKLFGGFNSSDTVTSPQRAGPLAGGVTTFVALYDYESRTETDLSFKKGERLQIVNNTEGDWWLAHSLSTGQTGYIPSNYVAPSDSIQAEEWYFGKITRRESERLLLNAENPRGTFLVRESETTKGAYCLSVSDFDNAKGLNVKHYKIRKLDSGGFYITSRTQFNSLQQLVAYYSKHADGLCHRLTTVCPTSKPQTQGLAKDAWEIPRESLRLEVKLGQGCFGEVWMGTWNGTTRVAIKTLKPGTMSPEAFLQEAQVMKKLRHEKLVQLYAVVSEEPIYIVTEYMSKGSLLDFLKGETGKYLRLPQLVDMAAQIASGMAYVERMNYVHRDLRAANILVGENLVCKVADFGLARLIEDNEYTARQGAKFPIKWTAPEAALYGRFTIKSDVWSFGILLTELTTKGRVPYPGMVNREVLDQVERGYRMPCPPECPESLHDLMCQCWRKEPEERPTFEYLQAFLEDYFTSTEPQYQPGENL
# UniProt P41240, whole entry: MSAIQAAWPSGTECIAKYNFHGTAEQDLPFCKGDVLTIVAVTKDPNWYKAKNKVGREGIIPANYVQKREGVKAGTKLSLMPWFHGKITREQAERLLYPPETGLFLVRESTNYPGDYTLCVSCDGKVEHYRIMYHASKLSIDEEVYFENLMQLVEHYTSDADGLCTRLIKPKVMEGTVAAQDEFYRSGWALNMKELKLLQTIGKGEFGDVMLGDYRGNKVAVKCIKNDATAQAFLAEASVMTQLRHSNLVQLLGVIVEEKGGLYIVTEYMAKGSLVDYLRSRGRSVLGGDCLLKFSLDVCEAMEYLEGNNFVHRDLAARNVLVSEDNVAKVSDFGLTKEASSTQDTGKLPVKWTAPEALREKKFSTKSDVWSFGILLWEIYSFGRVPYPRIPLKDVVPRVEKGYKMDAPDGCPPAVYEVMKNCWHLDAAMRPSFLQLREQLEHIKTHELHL
# UniProt P11362, 398-822 limits assumed: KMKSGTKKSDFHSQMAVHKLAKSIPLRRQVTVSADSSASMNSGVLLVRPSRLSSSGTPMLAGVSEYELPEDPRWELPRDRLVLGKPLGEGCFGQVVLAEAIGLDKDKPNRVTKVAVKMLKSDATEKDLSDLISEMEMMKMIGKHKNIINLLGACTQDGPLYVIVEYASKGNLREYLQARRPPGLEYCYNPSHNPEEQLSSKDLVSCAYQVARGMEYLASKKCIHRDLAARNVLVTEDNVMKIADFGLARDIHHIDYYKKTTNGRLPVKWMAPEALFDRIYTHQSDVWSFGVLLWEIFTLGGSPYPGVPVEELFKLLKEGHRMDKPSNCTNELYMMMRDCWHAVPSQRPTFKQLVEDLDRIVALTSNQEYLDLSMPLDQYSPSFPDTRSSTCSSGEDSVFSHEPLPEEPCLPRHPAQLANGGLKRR
# Assays:
# Conditions in all cases: screening assay, 50 μg/ml poly E4Y, 0.2 mM 32P-ATP
# Recombinant human Src = Recombinant human Src (Homo sapiens, UniProt P12931); assay: Src tyrosine kinase activity, poly E4Y and 32P-ATP
# Csk = Csk (Homo sapiens, UniProt P41240); assay: Csk tyrosine kinase activity, poly E4Y and 32P-ATP
# FGF receptor (FGFr) = FGF receptor (FGFr) (Homo sapiens, UniProt P11362); assay: FGFr tyrosine kinase activity, poly E4Y and 32P-ATP; type: biochemical
# Procedure: Recombinant human Src was expressed using the baculovirus-insect cell system and purified as published (Budde et al., 1993 and 2000). Recombinant Csk and the FGF receptor (FGFr) were expressed as glutathione-S-transferase fusion proteins using the pGEX expression vector and E. coli, and purified as described (Sun & Budde, 1995). The tyrosine kinase activity of Src, Csk and FGFr was determined using poly E4Y and ^32P-ATP. Briefly, enzymes were assayed in a reaction mixture consisting of 0.15 M EPPS-NaOH (pH 8.0) with 6 mM MgCl2, 0.2 mM γ^32P-ATP (0.2-0.4 mCi/μmol), 10% glycerol, 0.1% Triton X-100, and poly E4Y. Poly E4Y is a synthetic peptide whose phosphorylation is measured in this assay by the addition of the radioactively labeled phosphate from the ATP (Budde et al., 1995). […] When ATP was varied (0, 50, 100 and 250 μM), poly E4Y was kept constant at 150 μg/ml. […] From this screening, the thienopyrimidine-based scaffold was identified as one of the chemical structures to pursue. […] These analogues were screened against Src, Csk and FGFr (Table 2, Table 3, and Table 4).
Compound,Src IC50 (Recombinant human Src),Csk IC50 (Csk),FGFr IC50 (FGF receptor (FGFr))
Fc1ccc(-c2csc3c(NN=Cc4cccnc4)ncnc23)cc1,NI (NI = no inhibition up to 50 ug/mL),NI (NI = no inhibition up to 50 ug/mL),NI (NI = no inhibition up to 50 ug/mL)
Cc1csc2c(NN=CCC(C)C)ncnc12,–,NI (NI = no inhibition up to 50 ug/mL),NI (NI = no inhibition up to 50 ug/mL)
COc1ccc(OC)c(C=NNc2ncnc3c(C)csc23)c1,NI (NI = no inhibition up to 50 ug/mL),NI (NI = no inhibition up to 50 ug/mL),NI (NI = no inhibition up to 50 ug/mL)
C(=NNc1ncnc2c(-c3ccccc3)csc12)c1cccnc1,NI (NI = no inhibition up to 50 ug/mL),NI (NI = no inhibition up to 50 ug/mL),NI (NI = no inhibition up to 50 ug/mL)
CCCCOc1ccc(C=NNc2ncnc3c(C)csc23)cc1,–,NI (NI = no inhibition up to 50 ug/mL),NI (NI = no inhibition up to 50 ug/mL)
Cc1csc2c(NN=Cc3c(Cl)cccc3[N+](=O)[O-])ncnc12,NI (NI = no inhibition up to 50 ug/mL),NI (NI = no inhibition up to 50 ug/mL),NI (NI = no inhibition up to 50 ug/mL)
Cc1csc2c(NN=Cc3ccc(Cl)c([N+](=O)[O-])c3)ncnc12,–,NI (NI = no inhibition up to 50 ug/mL),NI (NI = no inhibition up to 50 ug/mL)
COc1ccc(C=NNc2ncnc3cc(-c4cccc(Cl)c4)sc23)cc1O,–,NI (NI = no inhibition up to 50 ug/mL),NI (NI = no inhibition up to 50 ug/mL)
COc1ccc(C=NNc2ncnc3cc(-c4ccc(Cl)cc4)sc23)cc1O,–,NI (NI = no inhibition up to 50 ug/mL),NI (NI = no inhibition up to 50 ug/mL)
Cc1csc2c(NN=CCCc3ccccc3)ncnc12,–,NI (NI = no inhibition up to 50 ug/mL),NI (NI = no inhibition up to 50 ug/mL)
Cc1csc2c(NN=Cc3cc([N+](=O)[O-])ccc3Cl)ncnc12,NI (NI = no inhibition up to 50 ug/mL),NI (NI = no inhibition up to 50 ug/mL),NI (NI = no inhibition up to 50 ug/mL)
Cc1csc2c(N(C)N=Cc3ccc(F)cc3)ncnc12,NI (NI = no inhibition up to 50 ug/mL),NI (NI = no inhibition up to 50 ug/mL),NI (NI = no inhibition up to 50 ug/mL)
COc1ccc(C=NNc2ncnc3cc(-c4ccc(F)cc4)sc23)cc1O,–,–,NI (NI = no inhibition up to 50 ug/mL)
Fc1ccc(-c2cc3ncnc(NN=Cc4cccs4)c3s2)cc1,–,NI (NI = no inhibition up to 50 ug/mL),NI (NI = no inhibition up to 50 ug/mL)
COc1cccc(C=NNc2ncnc3c(C)csc23)c1OC,NI (NI = no inhibition up to 50 ug/mL),NI (NI = no inhibition up to 50 ug/mL),NI (NI = no inhibition up to 50 ug/mL)
